Reference: ChEMBL document CHEMBL1152596, “Inhibition of serotonin and norepinephrine reuptake and inhibition of phosphodiesterase by multi-target inhibitors as potential agents for depression” (Bioorg Med Chem, 2009)

By UniProt entry, the sequences of proteins in these tests, tags left out. Where a name states a change or a piece, a line headed by the entry shows the natural chain unless it says otherwise.
UniProt Q08499: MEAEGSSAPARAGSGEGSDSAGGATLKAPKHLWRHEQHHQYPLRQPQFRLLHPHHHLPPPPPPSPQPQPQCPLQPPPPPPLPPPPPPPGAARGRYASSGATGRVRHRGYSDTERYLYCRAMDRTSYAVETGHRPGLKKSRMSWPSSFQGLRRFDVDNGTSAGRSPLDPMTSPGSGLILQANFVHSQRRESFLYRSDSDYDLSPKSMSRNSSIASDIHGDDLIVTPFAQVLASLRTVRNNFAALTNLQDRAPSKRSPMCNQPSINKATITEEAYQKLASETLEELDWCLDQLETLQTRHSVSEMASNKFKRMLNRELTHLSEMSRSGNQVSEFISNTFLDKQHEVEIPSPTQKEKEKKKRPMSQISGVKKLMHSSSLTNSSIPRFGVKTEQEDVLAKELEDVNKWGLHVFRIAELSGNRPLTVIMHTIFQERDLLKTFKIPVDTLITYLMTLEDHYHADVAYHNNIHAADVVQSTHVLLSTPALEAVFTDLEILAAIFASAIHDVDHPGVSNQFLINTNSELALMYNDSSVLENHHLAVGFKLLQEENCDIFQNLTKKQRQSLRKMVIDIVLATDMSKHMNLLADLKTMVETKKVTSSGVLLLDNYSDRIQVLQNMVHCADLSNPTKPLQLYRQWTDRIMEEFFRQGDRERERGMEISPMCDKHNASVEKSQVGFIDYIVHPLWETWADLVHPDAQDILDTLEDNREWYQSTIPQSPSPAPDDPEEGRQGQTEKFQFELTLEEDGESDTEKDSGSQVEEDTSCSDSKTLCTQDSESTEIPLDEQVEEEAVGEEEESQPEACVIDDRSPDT

Molecular target: 3',5'-cyclic-AMP phosphodiesterase 4D (Homo sapiens, UniProt Q08499)

IC50: 2 nM
SMILES: COc1ccc(C2=NN(CCCCCBr)C(=O)[C@@H]3CC=CC[C@H]23)cc1OC (relative stereo)
